“Also recorded” adds a separate entry of the source.

The assay deals with RIN 1048-36 cells. The assay is described as follows: Insulin secretion in vitro in RIN 1048-36 cells. The assay is classed as cell-based, rat. As to conditions: peptide 1×10−8 M, 5 mM glucose, 1 h, compared with GLP-1 and exendin-4.

Regarding `CC[C@H](C)[C@H](NC(=O)[C@H](Cc1ccccc1)NC(=O)[C@H](CCC(=O)O)NC(=O)[C@H](CCCCN)NC(=O)[C@H](C)NC(=O)[C@H](C)NC(=O)[C@H](CCC(N)=O)NC(=O)CNC(=O)[C@H](CCC(=O)O)NC(=O)[C@H](CC(C)C)NC(=O)[C@H](Cc1ccc(O)cc1)NC(=O)[C@H](CO)NC(=O)[C@H](CO)NC(=O)[C@@H](NC(=O)[C@H](CC(=O)O)NC(=O)[C@H](CO)NC(=O)[C@@H](NC(=O)[C@H](Cc1ccccc1)NC(=O)[C@@H](NC(=O)CNC(=O)[C@H](CCC(=O)O)NC(=O)[C@H](C)NC(=O)[C@@H](N)Cc1c[nH]cn1)[C@@H](C)O)[C@@H](C)O)C(C)C)C(=O)N[C@@H](C)C(=O)N[C@@H](Cc1c[nH]c2ccccc12)C(=O)N[C@@H](CC(C)C)C(=O)N[C@H](C(=O)N[C@@H](CCCCN)C(=O)NCC(=O)N[C@@H](CCCNC(=N)N)C(=O)N1CCC[C@H]1C(=O)N[C@@H](CO)C(=O)N[C@@H](CO)C(=O)NCC(=O)N[C@@H](C)C(=O)N1CCC[C@H]1C(=O)N1CCC[C@H]1C(=O)N1CCC[C@H]1C(=O)N[C@@H](CO)C(N)=O)C(C)C` [peptide 12], the “induction of insulin secretion” value was “substantially greater effect on insulin secretion than either GLP-1 or exendin-4; also recorded: remains active and actually has an activity that exceeds that of exendin-4”. For the molecule `CC[C@H](C)[C@H](NC(=O)[C@H](Cc1ccccc1)NC(=O)[C@H](CCC(=O)O)NC(=O)[C@H](CCCCN)NC(=O)[C@H](C)NC(=O)[C@H](C)NC(=O)[C@H](CCC(N)=O)NC(=O)CNC(=O)[C@H](CCC(=O)O)NC(=O)[C@H](CC(C)C)NC(=O)[C@H](Cc1ccc(O)cc1)NC(=O)[C@H](CO)NC(=O)[C@H](CO)NC(=O)[C@@H](NC(=O)[C@H](CC(=O)O)NC(=O)[C@H](CO)NC(=O)[C@@H](NC(=O)[C@H](Cc1ccccc1)NC(=O)[C@@H](NC(=O)CNC(=O)[C@H](CCC(=O)O)NC(=O)CCCCCNC(=O)CCCCCNC(=O)CCCCCNC(=O)CCCCCNC(=O)[C@H](C)NC(=O)[C@@H](N)Cc1c[nH]cn1)[C@@H](C)O)[C@@H](C)O)C(C)C)C(=O)N[C@@H](C)C(=O)N[C@@H](Cc1c[nH]c2ccccc12)C(=O)N[C@@H](CC(C)C)C(=O)N[C@H](C(=O)N[C@@H](CCCCN)C(=O)NCC(=O)N[C@@H](CCCNC(=N)N)C(N)=O)C(C)C` [GLP-1 (Aha^9)4, GLP-1 (6-aminohexanoic acid^9)4], the “induction of insulin secretion” value (listed as peptide 25) is “did not induce insulin secretion; also recorded: abrogated the peptides' ability to induce insulin secretion”. `CC[C@H](C)[C@H](NC(=O)[C@H](Cc1ccccc1)NC(=O)[C@H](CCC(=O)O)NC(=O)[C@H](CCCCN)NC(=O)[C@H](C)NC(=O)[C@H](C)NC(=O)[C@H](CCC(N)=O)NC(=O)CNC(=O)[C@H](CCC(=O)O)NC(=O)[C@H](CC(C)C)NC(=O)[C@H](Cc1ccc(O)cc1)NC(=O)[C@H](CO)NC(=O)[C@H](CO)NC(=O)[C@@H](NC(=O)[C@H](CC(=O)O)NC(=O)[C@H](CO)NC(=O)[C@@H](NC(=O)[C@H](Cc1ccccc1)NC(=O)[C@@H](NC(=O)CNC(=O)[C@H](CCC(=O)O)NC(=O)CCCCCNC(=O)CCCCCNC(=O)CCCCCNC(=O)CCCCCNC(=O)CCCCCNC(=O)CCCCCNC(=O)CCCCCNC(=O)CCCCCNC(=O)[C@H](C)NC(=O)[C@@H](N)Cc1c[nH]cn1)[C@@H](C)O)[C@@H](C)O)C(C)C)C(=O)N[C@@H](C)C(=O)N[C@@H](Cc1c[nH]c2ccccc12)C(=O)N[C@@H](CC(C)C)C(=O)N[C@H](C(=O)N[C@@H](CCCCN)C(=O)NCC(=O)N[C@@H](CCCNC(=N)N)C(N)=O)C(C)C` [GLP-1 (Aha^9)8, GLP-1 (6-aminohexanoic acid^9)8]: under “listed as peptide 26”, the “induction of insulin secretion” value is reported as “did not induce insulin secretion; also recorded: abrogated the peptides' ability to induce insulin secretion”.
